The target in the test is VEGFR2 (Homo sapiens, UniProt P35968). As to the kind of experiment: Inhibition against VEGFR2 kinase (receptor tyrosine kinase activity, HTRF method). Type of test: biochemical. Conditions: read-out: IC50 (concentration required for 50% inhibition of VEGFR2 kinase activity), His6-VEGFR2 cytoplasmic domain, biotin-poly(GT) substrate, ATP, 30° C. 10 minutes. As for the experimental part:
Measurement of Inhibition Against Receptor Tyrosine Kinase Activity
This assay is used to determine inhibition of a test substance on tyrosine kinase activity. DNA coding for the cytoplasmic domain of VEGFR2 is obtained by total cDNA synthesis (Edwards M, International Biotechnology Lab 5(3), 19–25, 1987) or by cloning. Expression in an appropriate expression system can produce a polypeptide with tyrosine kinase activity. […]
The supernatant was added to a Ni—NTA agarose column (3 ml, purchased from Qiagen) equilibrated with Buffer A {20 mM Tris-HCl (pH 8.5), 5 mM 2-mercaptoethanol, 500 mM KCl, 20 mM imidazole, 10% (v/v) glycerol}. […] After dialysis, it was supplied for SDS-electrophoresis, and the recombinant protein (His6-VEGFR2, cytoplasmic domain of VEGFR2 fused with 6 histidine residues at the N-terminus) detected at a molecular weight of approximately 100 kDa with Coumassie Brilliant Blue staining was assayed using BSA (bovine serum albumin, purchased from Sigma Co.) as the standard substance, and stored at −80° C. until use. […]
(In general: TR-FRET usually uses a lanthanide donor and a delayed reading to cut background.)

Chains of the proteins cited; added tags and fusions are not shown. Residues count along the entry.
UniProt P35968, 786-1356 limits assumed: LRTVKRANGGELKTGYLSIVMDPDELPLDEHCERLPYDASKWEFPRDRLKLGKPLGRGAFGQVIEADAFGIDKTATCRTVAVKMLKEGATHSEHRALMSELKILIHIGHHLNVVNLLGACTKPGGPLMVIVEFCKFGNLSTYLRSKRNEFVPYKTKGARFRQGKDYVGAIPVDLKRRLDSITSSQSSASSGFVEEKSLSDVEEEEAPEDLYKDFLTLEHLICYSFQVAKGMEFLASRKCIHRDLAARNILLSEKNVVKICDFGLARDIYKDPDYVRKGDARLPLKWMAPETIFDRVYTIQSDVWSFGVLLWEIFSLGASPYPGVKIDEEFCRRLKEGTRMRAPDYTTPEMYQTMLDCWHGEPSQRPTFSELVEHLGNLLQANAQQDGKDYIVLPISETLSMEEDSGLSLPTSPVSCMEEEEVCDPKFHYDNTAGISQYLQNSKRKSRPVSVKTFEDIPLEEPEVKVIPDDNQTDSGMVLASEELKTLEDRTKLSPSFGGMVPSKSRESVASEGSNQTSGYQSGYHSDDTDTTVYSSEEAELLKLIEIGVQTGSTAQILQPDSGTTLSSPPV

For the compound `CCOCCCNC(=O)Nc1ccc(Oc2ccnc3cc(OC)c(C(N)=O)cc23)cc1F`, the IC50 was 1.4 nM.

On to `CCN(CC)CCCOc1cc2nccc(Oc3ccc(NC(=O)Nc4nccs4)c(F)c3)c2cc1C#N`, for which the IC50 was determined as 70 nM.

(Values after patent US7253286B2, “Nitrogen-containing aromatic derivatives” (Eisai Co., Ltd, priority 2000, dated 2007).)
